Drawing on the supplement of paper PMC9005190, this text covers pEC50 for two compounds.

Chains of the proteins cited; added tags and fusions are not shown. Lines headed by an entry give the natural chain unless they say otherwise; changes in a name come on top.
UniProt P43116: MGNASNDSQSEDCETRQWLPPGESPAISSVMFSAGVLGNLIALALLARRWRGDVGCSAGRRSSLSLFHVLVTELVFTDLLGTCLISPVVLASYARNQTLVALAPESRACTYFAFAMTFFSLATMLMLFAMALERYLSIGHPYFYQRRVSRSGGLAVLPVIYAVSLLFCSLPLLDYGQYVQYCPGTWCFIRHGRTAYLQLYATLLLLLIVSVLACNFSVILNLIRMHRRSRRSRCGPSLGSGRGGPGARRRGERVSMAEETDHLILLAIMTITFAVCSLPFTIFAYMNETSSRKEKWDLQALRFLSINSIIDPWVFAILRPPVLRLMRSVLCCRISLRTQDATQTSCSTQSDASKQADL

The term pEC50 denotes −log10 of the EC50, conventionally taken in molar units.

The target of one test is EP2 (UniProt P43116). As to the kind of experiment: pEC50 of agonist-induced pathway activation (ebBRET).
A further test addresses T1, CTR (UniProt P30988).
T1 sequence (whole entry): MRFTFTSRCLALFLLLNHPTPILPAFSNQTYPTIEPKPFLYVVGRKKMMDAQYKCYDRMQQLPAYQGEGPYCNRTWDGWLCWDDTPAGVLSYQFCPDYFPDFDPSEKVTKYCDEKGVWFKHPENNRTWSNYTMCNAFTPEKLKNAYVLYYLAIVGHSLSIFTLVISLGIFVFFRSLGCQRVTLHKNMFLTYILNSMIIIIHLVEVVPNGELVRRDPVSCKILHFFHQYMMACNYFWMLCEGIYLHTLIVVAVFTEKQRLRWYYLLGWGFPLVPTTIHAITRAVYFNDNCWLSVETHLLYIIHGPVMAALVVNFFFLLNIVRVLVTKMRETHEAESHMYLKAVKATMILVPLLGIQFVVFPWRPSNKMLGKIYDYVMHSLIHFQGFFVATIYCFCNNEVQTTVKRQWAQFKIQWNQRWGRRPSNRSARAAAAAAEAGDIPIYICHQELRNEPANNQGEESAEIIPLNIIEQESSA
The test is described as above.

Where [1] appears, read: pathway (G protein / arrestin sensor): G12.
[2] abbreviates: pathway (G protein / arrestin sensor): G15.
Setting [3] is: pathway (G protein / arrestin sensor): Gs.
The mark [4] stands for this setting: pathway (G protein / arrestin sensor): Gz.
The mark [5] stands for this setting: pathway (G protein / arrestin sensor): βarr1/GRK2.
[6] abbreviates: pathway (G protein / arrestin sensor): βarr2.
Where [7] appears, read: pathway (G protein / arrestin sensor): βarr2/GRK2.

Molecules are shown by their SMILES.

For `CCCCC[C@H](O)/C=C/[C@H]1[C@H](O)CC(=O)[C@@H]1C/C=C\CCCC(=O)O` [PGE2], the pEC50 on EP2 (setting [1]) was 6.38; on EP2 (setting [2]), 6.62; on EP2 (setting [3]), 9.46; on EP2 (setting [4]) it was 6.43; on EP2 (setting [5]), 6.51; at EP2 (setting [6]), 7.26. Moreover, the pEC50 at EP2 (setting [7]) is 6.92.

As to `CC[C@H](C)[C@H](NC(=O)[C@H](C)NC(=O)[C@@H](NC(=O)[C@H](CCC(N)=O)NC(=O)[C@@H]1CCCN1C(=O)[C@H](Cc1ccccc1)NC(=O)[C@@H](NC(=O)[C@H](Cc1c[nH]cn1)NC(=O)[C@H](Cc1ccccc1)NC(=O)[C@H](CCCCN)NC(=O)[C@H](CC(N)=O)NC(=O)[C@H](Cc1ccccc1)NC(=O)[C@H](CC(=O)O)NC(=O)[C@H](CCC(N)=O)NC(=O)[C@@H](NC(=O)[C@H](Cc1ccc(O)cc1)NC(=O)[C@@H](NC(=O)CNC(=O)[C@H](CC(C)C)NC(=O)[C@H](CCSC)NC(=O)[C@@H]1CSSC[C@H](N)C(=O)NCC(=O)N[C@@H](CC(N)=O)C(=O)N[C@@H](CC(C)C)C(=O)N[C@@H](CO)C(=O)N[C@@H]([C@@H](C)O)C(=O)N1)[C@@H](C)O)[C@@H](C)O)[C@@H](C)O)[C@@H](C)O)C(=O)NCC(=O)N[C@H](C(=O)NCC(=O)N[C@@H](C)C(=O)N1CCC[C@H]1C(N)=O)C(C)C` [Calcitonin], the pEC50 on CTR (pathway (G protein / arrestin sensor): G11) worked out at 8.22; at CTR (setting [1]) it was 9.61; on CTR (pathway (G protein / arrestin sensor): G13) it was 10.1; on CTR (pathway (G protein / arrestin sensor): G14) it was 8.43; on CTR (setting [2]), 10.6; on CTR (pathway (G protein / arrestin sensor): Gi1), 8.35. Also, the pEC50 at CTR (pathway (G protein / arrestin sensor): Gi2) was 8.49; on CTR (pathway (G protein / arrestin sensor): GoA), 8.54; at CTR (pathway (G protein / arrestin sensor): GoB), 9.06; on CTR (pathway (G protein / arrestin sensor): Gq), 8.65; on CTR (setting [3]), 12; at CTR (setting [4]), 8.26. Moreover, the values for the pEC50 on CTR (setting [5]), at CTR (setting [6]) and at CTR (setting [7]) were 8.28, 8.17 and 8.21, respectively.
